From patent US20220242846A1, “ISOINDOLINONE COMPOUNDS” (Monte Rosa Therapeutics AG, priority 2019, published 2022)

By UniProt entry, the sequences of proteins in these tests, tags left out. Residues count along the entry.
UniProt Q96SW2, whole entry: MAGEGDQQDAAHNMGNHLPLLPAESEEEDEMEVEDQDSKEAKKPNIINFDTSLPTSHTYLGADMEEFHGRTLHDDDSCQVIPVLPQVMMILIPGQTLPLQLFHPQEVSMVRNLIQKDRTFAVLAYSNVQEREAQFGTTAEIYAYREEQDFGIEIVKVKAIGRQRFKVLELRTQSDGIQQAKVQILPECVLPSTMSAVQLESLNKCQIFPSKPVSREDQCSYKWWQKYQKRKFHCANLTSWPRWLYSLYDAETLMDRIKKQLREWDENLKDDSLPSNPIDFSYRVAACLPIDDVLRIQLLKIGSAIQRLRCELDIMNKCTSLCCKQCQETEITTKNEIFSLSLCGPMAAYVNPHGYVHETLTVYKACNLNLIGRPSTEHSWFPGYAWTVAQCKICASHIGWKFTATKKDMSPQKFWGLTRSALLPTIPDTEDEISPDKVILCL
UniProt P15170, whole entry: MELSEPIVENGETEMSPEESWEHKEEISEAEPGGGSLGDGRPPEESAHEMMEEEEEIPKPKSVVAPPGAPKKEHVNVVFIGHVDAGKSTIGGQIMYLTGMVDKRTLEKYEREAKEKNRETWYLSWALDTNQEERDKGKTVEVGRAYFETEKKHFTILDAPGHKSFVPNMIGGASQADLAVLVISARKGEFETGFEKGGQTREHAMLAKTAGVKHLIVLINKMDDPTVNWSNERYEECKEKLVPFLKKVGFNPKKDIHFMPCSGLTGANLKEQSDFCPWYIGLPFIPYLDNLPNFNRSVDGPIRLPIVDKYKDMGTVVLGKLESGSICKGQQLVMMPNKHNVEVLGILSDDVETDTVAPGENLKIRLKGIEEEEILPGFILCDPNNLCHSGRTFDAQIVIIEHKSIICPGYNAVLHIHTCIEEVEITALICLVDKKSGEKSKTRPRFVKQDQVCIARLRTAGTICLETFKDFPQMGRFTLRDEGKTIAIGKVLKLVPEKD
UniProt Q13422, whole entry: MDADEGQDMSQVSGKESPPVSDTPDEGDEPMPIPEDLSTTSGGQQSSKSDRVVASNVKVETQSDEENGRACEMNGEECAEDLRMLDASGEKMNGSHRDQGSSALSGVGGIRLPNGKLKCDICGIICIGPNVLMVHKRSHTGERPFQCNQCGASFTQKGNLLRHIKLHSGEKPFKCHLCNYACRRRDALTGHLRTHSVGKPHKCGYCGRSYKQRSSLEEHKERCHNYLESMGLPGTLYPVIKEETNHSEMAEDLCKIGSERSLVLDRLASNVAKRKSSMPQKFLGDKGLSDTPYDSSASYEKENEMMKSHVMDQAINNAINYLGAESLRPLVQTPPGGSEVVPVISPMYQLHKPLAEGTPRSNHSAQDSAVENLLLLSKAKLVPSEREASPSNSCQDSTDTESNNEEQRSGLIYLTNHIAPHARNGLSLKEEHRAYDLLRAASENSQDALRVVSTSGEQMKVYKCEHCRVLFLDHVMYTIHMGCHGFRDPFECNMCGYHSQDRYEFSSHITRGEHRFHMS
UniProt Q9UKT9, whole entry: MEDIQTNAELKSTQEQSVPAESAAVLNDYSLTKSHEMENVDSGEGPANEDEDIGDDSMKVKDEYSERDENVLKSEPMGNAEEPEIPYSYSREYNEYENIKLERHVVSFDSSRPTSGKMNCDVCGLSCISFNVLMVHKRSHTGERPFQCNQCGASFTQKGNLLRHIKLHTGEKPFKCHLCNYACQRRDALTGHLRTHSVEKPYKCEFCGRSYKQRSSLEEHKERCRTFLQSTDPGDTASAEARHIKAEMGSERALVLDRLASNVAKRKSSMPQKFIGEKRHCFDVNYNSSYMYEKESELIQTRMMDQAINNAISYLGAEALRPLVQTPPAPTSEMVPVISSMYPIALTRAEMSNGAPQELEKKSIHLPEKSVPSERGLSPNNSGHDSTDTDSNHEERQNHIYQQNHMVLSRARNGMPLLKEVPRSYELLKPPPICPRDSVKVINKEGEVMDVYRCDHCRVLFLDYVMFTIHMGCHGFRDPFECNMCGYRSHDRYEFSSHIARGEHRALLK
UniProt P48729, whole entry: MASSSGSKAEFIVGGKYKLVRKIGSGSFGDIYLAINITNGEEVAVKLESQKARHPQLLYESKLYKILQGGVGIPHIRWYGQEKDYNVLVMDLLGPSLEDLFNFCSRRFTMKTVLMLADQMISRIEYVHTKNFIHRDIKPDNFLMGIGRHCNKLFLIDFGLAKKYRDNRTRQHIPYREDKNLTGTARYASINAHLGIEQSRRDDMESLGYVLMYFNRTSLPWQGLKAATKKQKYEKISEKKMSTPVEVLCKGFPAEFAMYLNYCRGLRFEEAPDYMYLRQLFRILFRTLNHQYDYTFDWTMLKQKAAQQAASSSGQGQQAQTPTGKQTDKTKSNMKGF
UniProt Q96JP5, 2-570 limits assumed: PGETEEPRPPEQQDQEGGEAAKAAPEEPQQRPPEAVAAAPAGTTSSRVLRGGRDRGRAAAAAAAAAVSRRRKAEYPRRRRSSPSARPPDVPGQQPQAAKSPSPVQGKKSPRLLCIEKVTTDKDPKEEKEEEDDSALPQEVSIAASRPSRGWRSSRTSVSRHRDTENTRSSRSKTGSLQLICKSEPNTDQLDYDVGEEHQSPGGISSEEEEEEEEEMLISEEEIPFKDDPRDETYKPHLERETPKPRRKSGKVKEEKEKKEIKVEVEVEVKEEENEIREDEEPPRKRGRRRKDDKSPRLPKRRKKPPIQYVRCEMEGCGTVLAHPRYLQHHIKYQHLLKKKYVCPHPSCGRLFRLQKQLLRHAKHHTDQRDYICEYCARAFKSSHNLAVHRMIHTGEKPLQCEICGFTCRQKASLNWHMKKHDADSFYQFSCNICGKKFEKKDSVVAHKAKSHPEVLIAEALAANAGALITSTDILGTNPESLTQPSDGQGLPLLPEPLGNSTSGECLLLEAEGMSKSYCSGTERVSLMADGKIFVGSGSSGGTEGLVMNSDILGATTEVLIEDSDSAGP
UniProt Q16531, 2-1140 partner limits assumed: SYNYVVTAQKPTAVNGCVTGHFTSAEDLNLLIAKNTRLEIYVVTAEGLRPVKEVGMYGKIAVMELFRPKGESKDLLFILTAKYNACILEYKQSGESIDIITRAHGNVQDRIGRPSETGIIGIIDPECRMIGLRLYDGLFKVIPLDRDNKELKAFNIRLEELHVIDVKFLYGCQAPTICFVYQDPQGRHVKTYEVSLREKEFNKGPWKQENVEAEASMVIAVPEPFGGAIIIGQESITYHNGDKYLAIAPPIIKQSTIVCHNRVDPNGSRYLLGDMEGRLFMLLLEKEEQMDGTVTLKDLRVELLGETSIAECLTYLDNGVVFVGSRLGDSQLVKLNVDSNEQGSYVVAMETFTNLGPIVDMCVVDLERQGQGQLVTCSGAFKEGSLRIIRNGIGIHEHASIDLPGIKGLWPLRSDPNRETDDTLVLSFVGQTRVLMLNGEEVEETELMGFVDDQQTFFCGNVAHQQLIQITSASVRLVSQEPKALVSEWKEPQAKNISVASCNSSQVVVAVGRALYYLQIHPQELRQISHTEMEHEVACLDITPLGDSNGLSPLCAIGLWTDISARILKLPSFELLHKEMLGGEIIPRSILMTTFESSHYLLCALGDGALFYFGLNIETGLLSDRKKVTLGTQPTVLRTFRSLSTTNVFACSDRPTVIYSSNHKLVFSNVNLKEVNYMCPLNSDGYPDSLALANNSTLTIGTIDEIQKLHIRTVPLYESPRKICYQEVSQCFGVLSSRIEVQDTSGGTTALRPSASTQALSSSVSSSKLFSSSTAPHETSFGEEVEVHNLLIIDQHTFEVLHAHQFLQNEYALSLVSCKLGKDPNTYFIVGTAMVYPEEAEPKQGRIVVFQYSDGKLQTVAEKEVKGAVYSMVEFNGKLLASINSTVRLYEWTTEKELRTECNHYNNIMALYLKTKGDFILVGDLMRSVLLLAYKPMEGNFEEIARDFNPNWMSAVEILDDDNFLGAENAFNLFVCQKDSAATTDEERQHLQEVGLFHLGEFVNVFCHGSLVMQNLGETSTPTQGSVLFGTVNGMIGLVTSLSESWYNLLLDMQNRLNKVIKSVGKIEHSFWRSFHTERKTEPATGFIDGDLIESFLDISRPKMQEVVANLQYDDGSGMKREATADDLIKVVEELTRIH

Key:
[1] = biological target: Full length wild-type cereblon CRBN (Homo sapiens, UniProt Q96SW2); experiment: Fluorescence polarization (FP) assay indicating cereblon binding; conditions: read-out: rFP IC50; CRBN 80.0 nM, fluorescent probe 5 nM, FP measured after 12 hours
GSPT1 [2] = biological target: T1, GSPT1 (Homo sapiens, UniProt P15170+Q96SW2); experiment: Immunofluorescence assay for GSPT1 degradation in CAL-51 cells; type: cell-based; conditions: read-out: Code: activity for GSPT1 degradation (DC50), compound treatment 6 hours
Procedure: CAL-51 cells were purchased from DSMZ (cat. Number ACC302), sub-cultured in 90% Dulbecco's MEM (4.5 g/L glucose, Gibco 11965) +10% heat inactivated FBS (BioConcept, 2-01F136I) and incubated at 37° C., 5% CO2. For the assay, imaging microtiterplate Cell Carrier 96 Ultra (Perkin Elmer 6055302) were pre-coated with Fibronectin (Sigma F085, 300 at 0.2 μg/ml) in PBS (1000, Gibco 14190) for 45 min at room temperature, rinsed with PBS and CAL-51 cells (30K cells/well) were plated and let to adhere overnight. Cells were treated with compounds typically using a serial dilution ranging from 30 μM to 0.1 nM for 6 hours. Compounds were stored at 10 mM DMSO stocks. Vehicle (DMSO), positive (CC-885, 10 μM) and rescue controls (positive control plus 0.2 μM bortezomib) were also included at this stage. Cells were subsequently rinsed with PBS and fixed in 10% Formalin solution (50 μl, Sigma HT5011)) for 20 mins at room temperature. Following three consecutive PBS washes (100 μl), cells were permeabilized in 0.1% Triton X-100 in PBS (Sigma 93443, 50 μl) for 15 mins at room temperature. Following three further PBS washes, 50 μl blocking buffer (1% BSA, Sigma A4503, in PBS) was added for 45 min for signal-to-noise reduction. Primary antibody (human GSPT1, Sigma HPA052488) was diluted in blocking buffer (dil. 1/300, 35 μl/well) and incubated with the cells overnight at 4° C. […] Fluorescence intensity of Alexa-Fluor 488 (GSPT1), Alexa-Fluor 647 (Actin) and DAPI (Nucleus) were measured. […] The outline of the cells was determined analogously from the sum of the normalized, smoothed DAPI and Actin channel, starting from each nucleus. The Alexa-Fluor 488 (GSPT1) signal intensity in each cell was finally measured, in order to obtain a Mean intensity per cell. GSPT1 degradation (DC50) was calculated after normalization to controls and data import in CDD vault Database, using non-linear regression. […]

IKZF1 = IKZF1 (Homo sapiens, UniProt Q13422); experiment: Selectivity determination by Western Blot assay in MM1S cells: IKZF1; conditions: MM1S cells, 0.3, 3 and 30 μM, 6 hours
IKZF3 = IKZF3 (Homo sapiens, UniProt Q9UKT9); experiment: Selectivity determination by Western Blot assay in MM1S cells: IKZF3; conditions: MM1S cells, 0.3, 3 and 30 μM, 6 hours
CK1alpha = CK1alpha (Homo sapiens, UniProt P48729); experiment: Selectivity determination by Western Blot assay in MM1S cells: CK1alpha; conditions: MM1S cells, 0.3, 3 and 30 μM, 6 hours
ZFP91 = ZFP91 (Homo sapiens, UniProt Q96JP5); experiment: Selectivity determination by Western Blot assay in MM1S cells: ZFP91; conditions: MM1S cells, 0.3, 3 and 30 μM, 6 hours
GSPT1 [3] = biological target: T1, GSPT1; experiment: Selectivity determination by Western Blot assay in MM1S cells: GSPT1; conditions: MM1S cells, 0.3, 3 and 30 μM, 6 hours

IC50 [1] [nM] | DC50 (GSPT1 [2]) [nM] | CK1alpha degradation code (CK1alpha) | ZFP91 degradation code (ZFP91) | Compound | IKZF1 degradation code (IKZF1) | IKZF3 degradation code (IKZF3) | GSPT1 degradation code (GSPT1 [3])
1020 | < 100 | – | – | Cc1c(Cl)cc(NC(=O)NCc2ccc3c(c2)C(=O)N(C2CCC(=O)NC2=O)C3)cc1CN1CC2CC1CO2 (stereo not drawn) | – | – | –
– | < 100 | – | – | Cc1c(Cl)cc(NC(=O)NCc2ccc3c(c2)C(=O)N(C2CCC(=O)NC2=O)C3)cc1CC1COCCN1C (stereo not drawn) | – | – | –
– | < 100 | A | A | Cc1c(Cl)cc(NC(=O)NCc2ccc3c(c2)C(=O)N(C2CCC(=O)NC2=O)C3)cc1CN1C2CCC1COC2 (stereo not drawn) | C (C represents weak degradation at 30 μM (below 50%)) | B (B represents trace degradation at 30 μM (below 20%)) | F (F represents degradation at 0.3 μM (>90%))
